{
  "source": "patent US8280710B2",
  "about": "“Method for determining thermal stability of collagen or collagen-like peptide” (University of Medicine and Dentistry of New Jersey, priority 2005, dated 2012)",
  "settings": "host-guest peptide, (Gly-Pro-Hyp)8 host; c=1 mg/ml in phosphate-buffered saline, pH 7.0, heating rate 0.1° C./minute",
  "method": "The propensity measurements for all 20 amino acid residues in the Xaa1 position in a Gly-Xaa1-Hyp context and all 20 amino acid residues in the Xaa2 position in a Gly-Pro-Xaa2 context were determined by measuring thermal stability of host-guest peptides (Persikov, et al. (2000) supra).\nThe Tm values of all host-guest peptides were measured under a set of standard conditions, with c=1 mg/ml in phosphate-buffered saline, pH 7.0, and with a heating rate average of 0.1° C./minute (Persikov, et al. (2004) supra).",
  "data": [
    {"substance": "Gly-Gly-Leu", "values": [
      {"measurement": "experimentally observed Tm of Gly-Xaa1-Xaa2 tripeptide unit in a triple helix", "value": 25.3, "unit": "°C"}
    ]}
  ]
}
